Results as given in patent EP0942906B1, “COMPOUNDS USEFUL FOR INHIBITION OF FARNESYL PROTEIN TRANSFERASE” (SCHERING CORPORATION, priority 1996, dated 1998).
Read-outs that look alike come from different tables or passages of the source.

Biological target: farnesyl protein transferase (Homo sapiens, UniProt P49354+P49356)
Assay: FPT IC50, inhibition of farnesyl protein transferase, in vitro enzyme assay (procedure of WO 95/10516)
Type: biochemical
Conditions: range stated for the listed group of compounds
Experimental: FPT IC50 (inhibition of farnesyl protein transferase, in vitro enzyme assay) and COS Cell IC50 (Cell-Based Assay) were determined following the assay procedures described in WO 95/10516, published April 20, 1995. GGPT IC50 (inhibition of geranylgeranyl protein transferase, in vitro enzyme assay), Cell Mat Assay, and anti-tumor activity (in vivo anti-tumor studies) could be determined by the assay procedures described in WO 95/10516.

NCC(=O)N1CCC(CC(=O)N2CCC([C@H]3c4ncc(Br)cc4CCc4cc(Cl)cc(Br)c43)CC2)CC1 [Compound 16.0]
IC50 (H-ras, read-out: FPT IC50 (H-ras)): 0.002 to 0.0317 µM
IC50 (k-ras, read-out: FPT IC50 (k-ras)): 0.0145 to 0.0712 µM
